Source: patent US8911966B2, “Efficient astaxanthin production strains derived from Haematococcus pluvialis” (Cognis IP Management GmbH, priority 2007, dated 2014)

Tested on: Haematococcus pluvialis SAG 34-1b
Assay: Growth inhibition of wild strain by herbicides (minimal inhibiting concentration)
Assay type: cell-based
Conditions: strain SAG 34-1b; concentration also used for selection

CN1CCCC1c1cccnc1 (stereo not shown) [Nicotine, nicotine]
minimal concentration of the herbicide which inhibits the growth of the wild strain: 500 µM
